## Ab-14 light chain CDR variants: yeast mating affinities

Source: Engelhart et al. 2022 (doi:10.1038/s41597-022-01779-4), MIT Lincoln Laboratory and A-Alpha Bio; data file from the FLAb repository.

Antigen: PDVDLGDISGINAS, a 14-residue peptide of the SARS-CoV-2 spike HR2 region.

Ab-14 is the parent antibody, in scFv form: VH, then a 15-residue (Gly4Ser)3 linker, then VL. The heavy chain is unchanged in all variants.
VH: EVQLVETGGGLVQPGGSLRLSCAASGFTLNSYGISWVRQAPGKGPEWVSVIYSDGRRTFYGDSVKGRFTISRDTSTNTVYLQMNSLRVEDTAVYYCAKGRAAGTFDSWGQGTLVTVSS
VL: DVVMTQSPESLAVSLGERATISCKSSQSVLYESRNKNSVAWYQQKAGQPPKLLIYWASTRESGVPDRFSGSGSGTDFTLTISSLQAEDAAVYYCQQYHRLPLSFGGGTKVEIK

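Variants in AAYL50 differ from the parent at up to three CDR positions; double and triple changes were sampled at random. The scFvs were displayed on barcoded MATa yeast, the peptide on MATalpha yeast. Binding brings cells together so that they mate, and sequencing counts the barcode pairs among the diploids. A regression on co-assayed BCL2-family reference pairs converts the normalised counts of each replicate to an apparent Kd. The assay was run in three technical replicates.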

Positions count from residue 1 of the parent VL; L30N puts N in place of L.
Affinities are written as log10 Kd with Kd in nM; a lower number is a better binder.
A pair that was not seen in that replicate is written "nd"; this usually means weak binding, but a binder can also be missed.

Variant L30N/W56I showed nd, nd, nd (controls 0 of 9).
Variant K24G/T59W/H98K showed 3.02, nd, 5.46 (controls 2 of 9).
Variant S28R/W56M/R99A showed nd, nd, nd (controls 0 of 9).
Variant N37Y/T59P/Q96P showed nd, nd, nd (controls 2 of 9).
Variant S26G/S58W/Y97S showed nd, nd, 4.27 (controls 4 of 9).
Variant L30W/V39H/S62Y showed nd, nd, nd (controls 2 of 9).
Variant K24V showed 2.37, 1.88, 2.05 (controls 3 of 9).
Variant S33Y/R60D/L102S showed nd, 4.44, nd (controls 1 of 9).
Variant S62N showed 0.40, 0.71, 0.58 (controls 0 of 9).
Variant S33M/S38Q/H98N showed 0.38, 0.31, 0.37 (controls 3 of 9).
Variant S25I/R34N/V39Q showed 3.18, nd, nd (controls 1 of 9).
Variant A57P/R60E/E61D showed nd, nd, nd (controls 0 of 9).
Variant L30Q/E32I/N37F showed 4.29, nd, nd (controls 0 of 9).
Variant E32L/K36D/R60E showed nd, 3.15, nd (controls 3 of 9).
Variant S26Y/S28W/L102N showed nd, nd, nd (controls 3 of 9).
Variant Q95A/Q96K/P101A showed 2.03, 2.30, 2.19 (controls 3 of 9).
Variant N35H/A57P/S103G showed nd, nd, nd (controls 0 of 9).
Variant R34N/Q95H/S103L showed nd, nd, nd (controls 0 of 9).
Variant W56E/E61N/R99N showed 0.89, 1.12, 1.05 (controls 0 of 9).
Variant R34Q/L100E/L102Y showed nd, nd, nd (controls 1 of 9).
Variant S25Q/R34W/V39E showed nd, nd, nd (controls 4 of 9).
Variant A40L/R99N showed nd, nd, nd (controls 1 of 9).
Variant S28Q/W56V/L102T showed 6.50, 3.89, 6.37 (controls 6 of 9).
Variant K36M/T59E/L102T showed nd, 3.08, nd (controls 2 of 9).
Variant R34L/K36D/S58R showed 1.09, 1.25, 1.23 (controls 7 of 9).
Variant V29M/Y97T/L100W showed 3.72, 4.79, nd (controls 3 of 9).
Variant S28A/T59W/E61V showed 1.49, 1.58, 1.46 (controls 0 of 9).
Variant S25W/T59A/Q95K showed nd, nd, 5.03 (controls 2 of 9).
Variant E61P/S62G showed 3.53, 2.88, 2.84 (controls 7 of 9).
Variant Y31S/V39H/W56Q showed 2.19, 2.55, 2.35 (controls 1 of 9).
Variant V29E/N37H/R99G showed nd, 1.88, nd (controls 0 of 9).
Variant S25W/N37V/E61H showed 2.03, 2.53, nd (controls 0 of 9).
Variant L30E/N37F/P101H showed 2.89, 2.13, 2.68 (controls 0 of 9).
Variant K36R/T59S/H98P showed 5.69, 3.55, nd (controls 4 of 9).

The first 5 variants above that were never detected:

{"changes": "L30N/W56I", "log10 Kd, replicates": "nd, nd, nd", "control signals": "0/9"}
{"changes": "S28R/W56M/R99A", "log10 Kd, replicates": "nd, nd, nd", "control signals": "0/9"}
{"changes": "N37Y/T59P/Q96P", "log10 Kd, replicates": "nd, nd, nd", "control signals": "2/9"}
{"changes": "L30W/V39H/S62Y", "log10 Kd, replicates": "nd, nd, nd", "control signals": "2/9"}
{"changes": "A57P/R60E/E61D", "log10 Kd, replicates": "nd, nd, nd", "control signals": "0/9"}

As a blank, each scFv also met three strains without target: over library AAYL50, 18% of these pairings were detected, typically at 4.19 and seldom below 2.99. The control count says in how many pairings with the empty strains this scFv gave a signal.
Parent in this assay: reference entry 0.65, copy in this library 1.68.